# Experimental data taken from PubChem BioAssay AID504614 (Sanford-Burnham Center for Chemical Genomics, 2011).
# The list shows a part of the results, in another mix than the full data. The source made the active and inactive calls.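 The calls were made as follows: active = mean inhibition of at least 40% at 20 µM; inactive = the rest.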
# Test: Apaf-1 inhibitors, single-dose retest, confirmation, biochemical, fluorescence, DEVD-Rh110, 20 µM (AID 504614);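 also: plate controls were DMSO wells for no effect and DEVD-CHO caspase inhibitor control wells for full effect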
# Details: reconstituted apoptosome, caspase-3 DEVD-Rh110 fluorescence; at 20 µM; active compounds read high
row,SMILES,inhibition
1,CC1=C2N=C(C=C3N=C(C(C)=C4[N-][C@@](C)([C@@H]5N=C1[C@](C)(CCC(=O)NC[C@@H](C)OP(=O)([O-])O[C@H]1[C@@H](O)[C@@H](n6cnc7cc(C)c(C)cc76)O[C@@H]1CO)[C@H]5CC(N)=O)[C@@](C)(CC(N)=O)[C@@H]4CCC(N)=O)[C@@](C)(CC(N)=O)[C@@H]3CCC(N)=O)C(C)(C)[C@@H]2CCC(N)=O.[C-]#N.[Co+3],active: 100%
2,O=[N+]([O-])c1cc([N+](=O)[O-])c(Nc2ccccn2)c([N+](=O)[O-])c1,inactive: 22%
